The values below come from ChEMBL document CHEMBL5352458, “Novel slow-binding reversible acetylcholinesterase inhibitors based on uracil moieties for possible treatment of myasthenia gravis and protection from organophosphate poisoning” (2023).

Protein sequences, listed by entry. Tags and fused reporters are not part of them. Lines headed by an entry give the natural chain unless they say otherwise; changes in a name come on top.
UniProt P06276, whole entry, looked up: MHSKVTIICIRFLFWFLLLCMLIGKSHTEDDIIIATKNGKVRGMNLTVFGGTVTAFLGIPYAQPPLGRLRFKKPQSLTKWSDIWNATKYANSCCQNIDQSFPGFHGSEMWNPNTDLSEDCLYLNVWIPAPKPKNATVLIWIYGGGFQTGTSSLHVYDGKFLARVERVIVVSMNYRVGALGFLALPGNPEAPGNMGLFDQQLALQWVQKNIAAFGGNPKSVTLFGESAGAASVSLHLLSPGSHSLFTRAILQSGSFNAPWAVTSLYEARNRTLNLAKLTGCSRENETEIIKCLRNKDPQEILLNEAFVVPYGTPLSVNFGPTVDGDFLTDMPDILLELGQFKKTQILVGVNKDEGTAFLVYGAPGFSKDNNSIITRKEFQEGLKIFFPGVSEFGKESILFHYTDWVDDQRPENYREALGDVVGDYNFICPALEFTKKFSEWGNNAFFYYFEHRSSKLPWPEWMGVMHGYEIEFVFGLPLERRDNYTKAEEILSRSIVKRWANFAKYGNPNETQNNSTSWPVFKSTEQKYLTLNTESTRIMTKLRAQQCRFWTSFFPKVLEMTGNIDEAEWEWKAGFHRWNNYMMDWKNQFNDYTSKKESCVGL
UniProt P22303: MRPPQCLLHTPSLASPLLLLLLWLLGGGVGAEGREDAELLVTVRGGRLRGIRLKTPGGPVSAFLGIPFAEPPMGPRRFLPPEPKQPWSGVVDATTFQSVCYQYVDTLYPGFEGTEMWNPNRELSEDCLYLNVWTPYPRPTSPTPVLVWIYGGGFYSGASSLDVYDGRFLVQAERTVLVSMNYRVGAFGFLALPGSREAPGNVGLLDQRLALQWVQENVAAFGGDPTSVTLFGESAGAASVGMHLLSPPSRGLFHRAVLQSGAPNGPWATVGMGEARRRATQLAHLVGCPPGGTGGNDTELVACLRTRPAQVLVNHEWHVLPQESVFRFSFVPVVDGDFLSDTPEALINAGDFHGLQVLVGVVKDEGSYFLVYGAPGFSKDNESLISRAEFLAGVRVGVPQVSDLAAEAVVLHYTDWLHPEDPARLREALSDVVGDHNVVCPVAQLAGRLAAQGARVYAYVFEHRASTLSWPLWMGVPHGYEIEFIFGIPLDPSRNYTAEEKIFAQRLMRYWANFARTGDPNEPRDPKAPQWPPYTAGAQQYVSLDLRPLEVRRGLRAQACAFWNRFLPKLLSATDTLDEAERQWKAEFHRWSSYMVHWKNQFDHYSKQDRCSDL

Active and inactive are the calls of the source. The rule behind the calls is not given here.

Assay [1] addresses T1, Cholinesterases; ACHE & BCHE (Homo sapiens) (UniProt P06276+P22303). The assay can be described thus: Selectivity index, ratio of IC50 for human BChE to IC50 for human AChE.
For assay [2], the target named is Acetylcholinesterase (Homo sapiens) (UniProt P22303). The assay can be described thus: Binding affinity to human AChE using ATC as substrate assessed as half life measured for 10 mins by Ellman's method. In general terms: DTNB colorimetry detects thiols as they appear.
For assay [3] the target is unchanged. Put plainly: Binding affinity to human AChE using ATC as substrate assessed as binding constant (Koff) measured for 10 mins by Ellman's method.
Assay [4] deals with Rattus norvegicus. Put plainly: Anti-experimental autoimmune myasthenia gravis activity in Wistar rat assessed as increase in amplitude decrement of action potential at 0.01 mg/kg, ip measured at 15 to 240 mins by electromyogram analysis. The settings on record: time 15-240 min.
Assay [5] addresses Acetylcholinesterase (Homo sapiens) (UniProt P22303). Put plainly: Binding affinity to human AChE using ATC as substrate assessed as residence time measured for 10 mins by Ellman's method.
Assay [6] relates to Rattus norvegicus. The assay can be described thus: Anti-experimental autoimmune myasthenia gravis activity in Wistar rat assessed as increase in amplitude decrement of action potential at 0.015 mg/kg, ip measured at 15 to 240 mins by electromyogram analysis. The settings on record: time 15-240 min.
Assay [7] concerns the target Acetylcholinesterase (Homo sapiens) (UniProt P22303). Put plainly: Binding affinity to human AChE using ATC as substrate assessed as binding constant (Kon) measured for 10 mins by Ellman's method.
The subject of assay [8] is Rattus norvegicus. The assay can be described thus: Anti-experimental autoimmune myasthenia gravis activity in Wistar rat assessed as increase in amplitude decrement of action potential at 0.01 mg/kg, ip measured for 3 hrs by electromyogram analysis.
The subject of assay [9] is Rattus norvegicus. Put plainly: Anti-experimental autoimmune myasthenia gravis activity in Wistar rat assessed as effect on force of urinary bladder contraction at 0.005 to 0.01 mg/kg, ip measured for 15 mins by electromyogram analysis. The note with it: dose 0.005-0.01 mg/kg.
For assay [10], the target named is T1, Cholinesterases; ACHE & BCHE (Homo sapiens). Put plainly: Selectivity index, ratio of IC50 for inhibition of human plasma BChE to IC50 for inhibition of AChE in human Erythrocyte.
Assay [11] has as its system Rattus norvegicus. The assay can be described thus: Anti-experimental autoimmune myasthenia gravis activity in Wistar rat assessed as increase in amplitude decrement of action potential at 0.1 mg/kg, ip measured for 1 hrs by electromyogram analysis.
The test system of assay [12] is Rattus norvegicus. Put plainly: Anti-experimental autoimmune myasthenia gravis activity in Wistar rat assessed as increase in amplitude decrement of action potential at 0.1 mg/kg, ip measured at 15 to 240 mins by electromyogram analysis. The settings on record: time 15-240 min.

For `CC[N+](CC)(CCCCCn1c(=O)cc(C)n(CCCCCn2c(C)cc(=O)n(C)c2=O)c1=O)Cc1ccccc1[N+](=O)[O-]`, the Ratio IC50 in assay [1] is 113000.

As to `CC[N+](CC)(CCCCCn1c(=O)cc(C)n(CCCCCCn2c(C)cc(=O)n(C)c2=O)c1=O)Cc1ccccc1C(F)(F)F`, the T1/2 in assay [2] turned out to be 12.9 min. Moreover, the K in assay [3] is 0.07 min⁻¹; in [7], 4.8 10^9/M/min. Further, the Ratio IC50 in assay [1] is 200000. The result with Rattus norvegicus [4], in the assay on Rattus norvegicus [6] and in the assay on Rattus norvegicus [8] was Active. Also, in [5], the TIME was 0.31 h. Moreover, in the assay with Rattus norvegicus [9], the result was inactive.

In the case of `CC[N+](CC)(CCCCCn1c(C)cc(=O)n(CCCCC[N+](CC)(CC)Cc2ccccc2)c1=O)Cc1ccccc1`, the Ratio IC50 in assay [10] was 66700.

With `CC[N+](CC)(CCCCCn1c(=O)cc(C)n(CCCCCn2c(C)cc(=O)n(C)c2=O)c1=O)Cc1ccccc1C(F)(F)F`, the Ratio IC50 in [1] stood at 120000.

On to `CC[N+](CC)(CCCCCn1c(=O)cc(C)n(CCCn2c(C)cc(=O)n(C)c2=O)c1=O)Cc1ccccc1C(F)(F)F`, for which the Ratio IC50 in assay [1] worked out at 220000.

On to `CC[N+](CC)(CCCCCn1c(=O)cc(C)n(CCCn2c(C)cc(=O)n(C)c2=O)c1=O)Cc1ccccc1[N+](=O)[O-]`, for which the Ratio IC50 in assay [1] is 571.

For `CC[N+](CC)(CCCCCn1c(=O)cc(C)n(CCCCn2c(C)cc(=O)n(C)c2=O)c1=O)Cc1ccccc1[N+](=O)[O-]`, the Ratio IC50 in [1] was 45700.

With `CN(C)C(=O)Oc1ccc[n+](C)c1`, the outcome with Rattus norvegicus [11] and in the assay with Rattus norvegicus [12] was Active. Further, in [1], the Ratio IC50 came to 2.9.

Take `CC[N+](CC)(CCCCCn1c(=O)cc(C)n(CCCCCCn2c(C)cc(=O)n(C)c2=O)c1=O)Cc1ccccc1[N+](=O)[O-]`: in assay [1], the Ratio IC50 was determined as 60000.

Regarding `CC[N+](CC)(CCCCCn1c(=O)cc(C)n(CCCCn2c(C)cc(=O)n(C)c2=O)c1=O)Cc1ccccc1C(F)(F)F`, the Ratio IC50 in assay [1] turned out to be 200000.
